# Yeast mating assay B: variants of the scFv Ab-14

From the AlphaSeq antibody data of Li et al. 2023 (doi:10.1038/s41467-023-39022-2), copy in the FLAb collection.

Target peptide (SARS-CoV-2 spike, HR2 region): PDVDLGDISGINAS

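The parent was found by panning a naive human phage display library on the peptide. The variants were designed computationally from a first round of random CDR variants and then made and measured. Group labels follow the data file (Ctrl: baseline library sampled from a position-specific scoring matrix, with some repeated check sequences; Rand: our label for a block that the file lists under HC and that is probably the random mutants of the ten best first-round binders; En: ensemble of fine-tuned language models; GP: Gaussian process model; GPLM: also part of the Gaussian process libraries; HC: hill climbing; Gen: genetic algorithm; Gibbs: Gibbs sampling; a sequence that several methods proposed may carry one label only). The assay is AlphaSeq: two haploid yeast populations carry antibody and antigen on their surface. Mating (16 h, 30 °C) was followed by selection of diploids and sequencing of their barcodes. Each replicate has its own calibration line, from reference interactions of the BCL2 family. Each pool was mated in six replicate cultures.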

Parent: Ab-14, a human scFv built as VH, the linker GGGGSGGGGSGGGGS, VL. Only the CDRs of the heavy chain vary.
VH: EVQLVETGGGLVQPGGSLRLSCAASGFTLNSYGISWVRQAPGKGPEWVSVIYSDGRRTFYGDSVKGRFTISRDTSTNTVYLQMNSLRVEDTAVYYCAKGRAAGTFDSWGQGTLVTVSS
VL: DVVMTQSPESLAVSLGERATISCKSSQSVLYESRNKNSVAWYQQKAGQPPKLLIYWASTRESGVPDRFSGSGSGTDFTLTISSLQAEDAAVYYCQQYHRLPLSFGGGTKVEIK

The whole VH of each variant is written out. This list holds designs with at most six substitutions. The Kd shown is the geometric mean over detected replicates; a lower Kd is a better binder. An entry "no signal" has no value in the source: the pair was not observed among the diploids in any replicate. This suggests poor binding but is not conclusive. Order: sorted from the lowest average up, undetected variants last. Where one sequence has several entries in the source, the replicates are pooled. The authors' rule: three or more of the six replicates give a measured affinity, fewer mean a poor binder. A sequence measured in both rounds can read differently, since the two assays cover different ranges. Three control strains display no target. For all heavy chain designs, 1% of the pairings with them gave a signal, with a median of 120 nM and one signal in twenty below 7.0 nM, so weak values seen in few replicates may be background. The parent sequence was in this pool as ten entries: three were never detected, three once, and four in most replicates, with averages from 2.2 nM to 240 nM.

VH	group	Kd	detected
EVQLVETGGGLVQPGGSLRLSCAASGFDLNSYGISWVRQAPGKGPEWVSVIYSDGRRTFYVDSVKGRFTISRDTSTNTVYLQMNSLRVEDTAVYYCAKGRQAGTFDSWGQGTLVTVSS	GPLM_Gibbs	250 pM	6 of 6
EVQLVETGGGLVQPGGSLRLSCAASGFDLNEYGISWVRQAPGKGPEWVSVIYADGMRTFYIDSVKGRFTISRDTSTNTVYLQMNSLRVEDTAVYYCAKGNAAGTFDSWGQGTLVTVSS	En_HC	260 pM	6 of 6
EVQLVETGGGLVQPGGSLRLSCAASGFMLNSYGISWVRQAPGKGPEWVSVIYSDGRRTFYHDSVKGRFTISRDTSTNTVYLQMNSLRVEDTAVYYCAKGWTAGTFDSWGQGTLVTVSS	Ctrl	540 pM	5 of 6
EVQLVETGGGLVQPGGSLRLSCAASGFTLNDYGISWVRQAPGKGPEWVSVIYSDGRRTFYGDSVKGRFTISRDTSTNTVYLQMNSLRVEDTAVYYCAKGRHAGTFISWGQGTLVTVSS	GPLM_HC	870 pM	5 of 6
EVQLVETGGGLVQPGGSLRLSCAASGFSLNSYGISWVRQAPGKGPEWVSVIYSDGRRTFYIDSVKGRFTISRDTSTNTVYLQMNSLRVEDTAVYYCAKGRLAGTFDSWGQGTLVTVSS	GPLM_Gen	1.0 nM	2 of 6
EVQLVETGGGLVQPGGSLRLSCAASGFELNEYGISWVRQAPGKGPEWVSVIYSDGRRTFYADSVKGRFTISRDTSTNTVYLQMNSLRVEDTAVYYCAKGRTAGTFDSWGQGTLVTVSS	GPLM_Gen	1.5 nM	6 of 6
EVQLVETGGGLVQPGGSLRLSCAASAFDLNSYGISWVRQAPGKGPEWVSVIYSDGRRTFYGDSVKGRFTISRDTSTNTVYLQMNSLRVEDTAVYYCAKGRTAGTFDSWGQGTLVTVSS	GP_Gen	1.6 nM	6 of 6
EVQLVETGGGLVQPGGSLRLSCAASGFTLNEYGMSWVRQAPGKGPEWVSVIYSDGRRTFYPDSVKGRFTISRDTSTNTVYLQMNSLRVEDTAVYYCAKGRFAGTFDSWGQGTLVTVSS	Rand	1.7 nM	2 of 6
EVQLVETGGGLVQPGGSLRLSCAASGFTLNSYGISWVRQAPGKGPEWVSVIYSDGRRTFYSDSVKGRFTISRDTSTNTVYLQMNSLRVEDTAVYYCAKGQAAGTFDTWGQGTLVTVSS	GPLM_Gen	3.4 nM	6 of 6
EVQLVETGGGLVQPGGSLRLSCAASGFSLNSYGISWVRQAPGKGPEWVSVIYSDGRRTFYADSVKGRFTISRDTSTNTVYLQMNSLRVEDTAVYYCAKGKNAGTFDSWGQGTLVTVSS	GPLM_Gen	3.6 nM	6 of 6
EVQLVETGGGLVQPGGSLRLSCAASGFQLNSYGISWVRQAPGKGPEWVSVIYSDGRRTFYSDSVKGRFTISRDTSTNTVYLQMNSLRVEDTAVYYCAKGKAAGTFDSWGQGTLVTVSS	GPLM_Gibbs	4.2 nM	4 of 6
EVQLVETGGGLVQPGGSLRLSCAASKFQLNSYGISWVRQAPGKGPEWVSVIYSDGRRTFYGDSVKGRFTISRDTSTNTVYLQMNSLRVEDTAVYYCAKGRTAGTFDSWGQGTLVTVSS	GPLM_Gibbs	14 nM	1 of 6
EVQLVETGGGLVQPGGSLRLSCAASGFCLNEYGISWVRQAPGKGPEWVSVIYSDGRRTFYADSVKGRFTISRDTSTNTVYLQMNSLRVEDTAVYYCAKGRAAGTFDSWGQGTLVTVSS	Ctrl	15 nM	5 of 6
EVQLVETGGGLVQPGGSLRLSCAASGFDLNSYGISWVRQAPGKGPEWVSVIYSDGRRTFYGDSVKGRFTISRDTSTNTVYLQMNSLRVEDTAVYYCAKGRIAGTFNSWGQGTLVTVSS	GP_HC	20 nM	6 of 6
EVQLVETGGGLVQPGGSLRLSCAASGFTLESYGISWVRQAPGKGPEWVSVIYSDGRRTFYGDSVKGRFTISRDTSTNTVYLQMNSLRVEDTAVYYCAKGRAAGTFDSWGQGTLVTVSS	Ctrl+GPLM_Gen	34 nM	7 of 12
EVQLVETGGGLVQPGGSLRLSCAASGFNLNSYGISWVRQAPGKGPEWVSVIYSDGRRTFYGDRVKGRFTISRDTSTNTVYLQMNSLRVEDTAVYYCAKGREAGTFDSWGQGTLVTVSS	GP_Gibbs	39 nM	5 of 6
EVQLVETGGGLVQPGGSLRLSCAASAFTLTSYGISWVRQAPGKGPEWVSVIYSDGRRTFYDDSVKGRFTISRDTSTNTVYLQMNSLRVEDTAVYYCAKGRAAGTFDSWGQGTLVTVSS	Ctrl	41 nM	3 of 6
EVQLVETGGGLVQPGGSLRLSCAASGFNVNSYGISWVRQAPGKGPEWVSVIYSDGRRTFYGDSVKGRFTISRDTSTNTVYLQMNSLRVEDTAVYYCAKGRAAGTFDSWGQGTLVTVSS	Ctrl	87 nM	5 of 6
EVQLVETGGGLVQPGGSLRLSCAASTFTMNSYGISWVRQAPGKGPEWVSVIDSDGRRTFYGDSVKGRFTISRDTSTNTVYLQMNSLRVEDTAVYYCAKGRAAVTFDSWGQGTLVTVSS	Ctrl	no signal	0 of 6
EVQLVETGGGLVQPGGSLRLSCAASGQTLESYGISWVRQAPGKGPEWVSVIYSDGRRTFYGDKVKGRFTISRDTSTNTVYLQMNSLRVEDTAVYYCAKGRVAGTFDGWGQGTLVTVSS	Ctrl	no signal	0 of 6
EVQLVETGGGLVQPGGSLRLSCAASGFTVNSYGISWVRQAPGKGPEWVSVIYSDGRRTFYGDSVKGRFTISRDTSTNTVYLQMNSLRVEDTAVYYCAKGRAAATFDSWGQGTLVTVSS	Ctrl	no signal	0 of 6

Repeated from above, the 3 best binders with a signal in all replicates:

VH	group	Kd	detected
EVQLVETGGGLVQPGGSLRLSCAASGFDLNSYGISWVRQAPGKGPEWVSVIYSDGRRTFYVDSVKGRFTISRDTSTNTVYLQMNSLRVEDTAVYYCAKGRQAGTFDSWGQGTLVTVSS	GPLM_Gibbs	250 pM	6 of 6
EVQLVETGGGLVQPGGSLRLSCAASGFDLNEYGISWVRQAPGKGPEWVSVIYADGMRTFYIDSVKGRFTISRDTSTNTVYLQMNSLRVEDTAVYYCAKGNAAGTFDSWGQGTLVTVSS	En_HC	260 pM	6 of 6
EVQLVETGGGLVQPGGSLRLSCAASGFELNEYGISWVRQAPGKGPEWVSVIYSDGRRTFYADSVKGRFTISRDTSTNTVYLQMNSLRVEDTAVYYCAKGRTAGTFDSWGQGTLVTVSS	GPLM_Gen	1.5 nM	6 of 6